Bounds are passed on as bounds.

By UniProt entry, the sequences of proteins in these tests, tags left out.
UniProt P14416, whole entry: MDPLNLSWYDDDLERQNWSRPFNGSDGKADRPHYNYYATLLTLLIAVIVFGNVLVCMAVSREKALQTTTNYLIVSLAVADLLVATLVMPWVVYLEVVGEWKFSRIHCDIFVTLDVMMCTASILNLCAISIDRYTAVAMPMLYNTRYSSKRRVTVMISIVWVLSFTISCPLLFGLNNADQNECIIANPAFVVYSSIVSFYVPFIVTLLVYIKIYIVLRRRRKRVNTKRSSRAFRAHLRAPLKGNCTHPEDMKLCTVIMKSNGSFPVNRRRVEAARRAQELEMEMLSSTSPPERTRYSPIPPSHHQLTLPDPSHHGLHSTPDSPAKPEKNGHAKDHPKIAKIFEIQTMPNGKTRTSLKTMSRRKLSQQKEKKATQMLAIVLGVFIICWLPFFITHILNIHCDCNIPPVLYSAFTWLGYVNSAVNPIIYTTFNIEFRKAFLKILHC
UniProt P21918, whole entry: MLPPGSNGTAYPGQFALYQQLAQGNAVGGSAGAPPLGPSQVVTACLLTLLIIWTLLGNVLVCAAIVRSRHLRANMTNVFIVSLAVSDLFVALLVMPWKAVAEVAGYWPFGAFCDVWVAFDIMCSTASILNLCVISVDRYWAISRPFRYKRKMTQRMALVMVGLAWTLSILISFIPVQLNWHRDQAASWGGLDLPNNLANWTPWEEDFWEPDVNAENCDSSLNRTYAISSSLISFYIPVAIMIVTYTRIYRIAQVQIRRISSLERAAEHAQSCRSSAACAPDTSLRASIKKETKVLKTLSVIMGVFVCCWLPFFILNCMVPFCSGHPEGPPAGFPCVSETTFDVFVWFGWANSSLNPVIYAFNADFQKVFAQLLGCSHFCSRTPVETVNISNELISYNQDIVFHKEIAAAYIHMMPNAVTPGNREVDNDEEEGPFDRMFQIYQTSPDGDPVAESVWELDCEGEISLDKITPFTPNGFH

The species entered for experiment [1] is Homo sapiens. Nature of the experiment: Selectivity ratio of Ki for human dopamine D1-like receptor to Ki for human dopamine D2-like receptor.
The target in experiment [2] is T1, D(2) dopamine receptor (Homo sapiens, UniProt P14416). Nature of the experiment: Displacement of [3H]spiperone from low-affinity state of human dopamine D2L receptor transfected in HEK293 cells after 2 hrs by scintillation counting analysis. It counts as cell-based.
Experiment [3] concerns the target T1, D(2) dopamine receptor. Nature of the experiment: Agonist activity at human dopamine D2L receptor expressed in HEK293 cells assessed as inhibition of forskolin-induced cAMP accumulation after 30 mins by LANCE assay. The class given is functional, cell-based.
Experiment [4] has as its target T1, D(2) dopamine receptor. Nature of the experiment: Displacement of [3H]spiperone from high-affinity state of human dopamine D2L receptor transfected in HEK293 cells after 2 hrs by scintillation counting analysis. It counts as cell-based.
Experiment [5] deals with D(1B) dopamine receptor (Homo sapiens, UniProt P21918). Nature of the experiment: Displacement of [3H]SCH23390 from human dopamine D5 receptor transfected in HEK293 cells after 2 hrs by scintillation counting analysis. It counts as cell-based.
The target of experiment [6] is T1, D(2) dopamine receptor. Nature of the experiment: Displacement of [3H]spiperone from low-affinity state of human dopamine D2S receptor transfected in HEK293 cells after 2 hrs by scintillation counting analysis. The class given is cell-based.

In the case of `Oc1ccc2c(c1)O[C@@H](CNCc1ccc(I)cc1)CC2`, the Ratio Ki in experiment [1] was > 100. Besides, the Ki in experiment [2] (read-out: Ki) is 51.8 nM; in experiment [2] (read-out: pKi (converted)), 35.5 nM; in experiment [4] it was 3.79 nM; in experiment [5] it was 3790 nM; in experiment [6], 140 nM. For the same compound, the EC50 in experiment [3] is 0.631 nM.

The record behind these values is ChEMBL document CHEMBL3112461, “Synthesis and characterization of a novel series of agonist compounds as potential radiopharmaceuticals for imaging dopamine D₂/₃ receptors in their high-affinity state” (J Med Chem, 2014).
